Experimental findings from publication PMC3779200, “Structural, Biochemical and Genetic Characterization of Dissimilatory ATP Sulfurylase from Allochromatium vinosum” (PLoS ONE, 2013) are described below.

Substrate in the data set: Nc1ncnc2c1ncn2[C@@H]1O[C@H](COP(=O)(O)OS(=O)(=O)O)[C@@H](O)[C@H]1O
As to the kind of experiment: purified protein. The settings on record: pH 8.0; 30.0 °C.

B1: ATP sulfurylase (ATPS) from Allochromatium vinosum, sat-encoded dissimilatory ATP sulfurylase (enzyme)
chain: MIKPVGSDELRPRFVYDPEQHHRLSSEAESLPSVIVSSQAAGNAVMLGAGYFSPLDGFMNLADALSSAQSMTLTDGRFFPVPLLCLLESADAIAGATRIALRDPNVEGNPVLAVMDVTAVEQVSDAQMALMTEQVYGTSDPKHPGVETFNSQGRTAISGPIQVLNFSYFQTDFPDTFRTAVEIRHEIQERGWQKIVAFQTRNPMHRAHEELCKMAMEAVEADGVVIHMLLGQLKPGDIPAPVRDAAIRTMAELYFPPNTVMVTGYGFDMLYAGPREAVLHAYFRQNMGATHFIIGRDHAGVGDYYGPFDAQTIFDDAVPTDVLAIEIFRADNTAYSKKLGRVVMMRDAPDHTPDDFIQLSGTRVREMLGQGEAPPPEFSRPEVAQILMDYYRSLPQS
notes: ATP sulfurylase encoded by the sat gene of Allochromatium vinosum (Alvin_1118; E.C; 2.7.7.4); sat gene amplified from chromosomal DNA and cloned between NdeI and BamHI of pET-11a; the structure describes domains I (1-172), II (173-331) and III (332-396); The protein for crystallization was purified without a nickel column; a His-tagged protein is named only for the kinetic characterization, …
The term Km denotes the concentration of substrate that gives half-maximal velocity. Turning to B1, the Km turned out to be 9.5 µM.
